Screens deposited in PubChem BioAssay by several laboratories.
Rows were chosen to be rich in hits. Some 4.2% of all compounds tested hit in one or more screens of this group.
NALP1 yeast inh = NALP1 inhibition. S. cerevisiae NALP1/ASC/caspase-1 growth, X-gal OD620, 72 h. inhibition, % at 10 µM. actives 0.61% (n = 280,000). AID 2071; in the data active means inhibition mostly above about 24%, no sharp cut-off; inactive means mostly below about 32%
MC4R barr agon = agonists of human melanocortin 4 receptor (MC4R) beta-arrestin | P32245 | U2OS MC4R beta-arrestin complementation, luminescence; percent of melanotan II response, DMSO zero | activation, % at 8.9 µM | actives 0.98% (n = 360,000) | AID 540308;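 active means activation above a per-plate cutoff, the mean activation of sample wells on that plate plus 3 SD, cut at about 8% in these data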
HDAC3 inh = inhibitors of human histone deacetylase 3 | inhibition, % at 8.3 µM | actives 0.15% (n = 320,000) | recombinant HDAC3, fluorogenic peptide/trypsin coupled, fluorescence | AID 2718 | O15379; in the data active means inhibition above about 26%, passing the limit was not always enough
ALR H2O2 inh = human ALR oxidase inhibition via reduced H2O2. P55789. purified ALR, DTT oxidation, H2O2 HRP-luminol luminescence. inhibition, % (no concentration beside the values). 290,000 tested, 3.8% active. AID 485317;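 active = mean and each replicate at 75% or more; inconclusive = only one of the two met; inactive = neither met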;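 also: stock transfer was 7.5 nL into about 7.5 µL; 0% = neutral wells and 100% = wells with inactivated enzyme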
MC4R antag cAMP = human MC4R antagonism in cAMP assay; MC4R-expressing cells, MTII-stimulated cAMP, LANCE TR-FRET; inhibition, % at 6.5 µM; actives 0.48% (n = 360,000); AID 540295;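 active means inhibition above its plate's cutoff, the mean of tested wells on that plate plus 3 SD, cut at about 29% in these data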;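 further: 0% = Melanotan II alone and 100% = Melanotan II plus saturating MCL0020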
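Assay system: human MC4R-expressing U2OS cells; reagent: Melanotan II stimulation of cells; dosing: 6.5 µM single dose; timing: compound 30 min, challenge 1 h, detection 1 h; signal: TR-FRET cAMP assay; replicates: one well per compound, no replicates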
UUG fidelity = modulators of start codon recognition fidelity in yeast; S. cerevisiae UUG-firefly luciferase reporter, luminescence/redox ratio; AID 602363; 350,000 tested, 0.13% active; activity score, % at 18.7 µM;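 active = replicate mean at a twofold rise or more, about +100% in these data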;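 also: firefly luciferase made from a UUG start codon reports start codon fidelity; reporter light over untreated wells divided by growth signal over untreated wells; some hits fall short of that in this replicate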
An asterisk follows results filed as active.

`CCC(C)NC(=O)CS(=O)(=O)Cc1nc(-c2cccc(OC)c2)oc1C` (stereo unspecified) gave NALP1 yeast inh 40, MC4R barr agon 0, HDAC3 inh -7, ALR H2O2 inh 99*, MC4R antag cAMP -4 and UUG fidelity -11.
`COc1cccc(-c2nc(CS(=O)(=O)CC(=O)NCCCOC(C)C)c(C)o2)c1` gave NALP1 yeast inh 3, MC4R barr agon -1, HDAC3 inh -2, ALR H2O2 inh 94*, MC4R antag cAMP -1 and UUG fidelity 6.
Screening COc1cccc(-c2nc(CS(=O)(=O)CC(=O)NCc3ccc4c(c3)OCO4)c(C)o2)c1 returned NALP1 yeast inh 20, MC4R barr agon -3, HDAC3 inh 3, ALR H2O2 inh 95*, MC4R antag cAMP 9 and UUG fidelity -17.
For COc1cccc(-c2nc(CS(=O)(=O)CC(=O)NCc3ccccc3)c(C)o2)c1 the results were NALP1 yeast inh 23, MC4R barr agon -1, HDAC3 inh 0, MC4R antag cAMP 8 and UUG fidelity 1.
Screening COc1cccc(-c2nc(CS(=O)CC(=O)NCCCOC(C)C)c(C)o2)c1 (stereo unspecified) returned NALP1 yeast inh 30, MC4R barr agon 0, HDAC3 inh 3, ALR H2O2 inh 99*, MC4R antag cAMP 13 and UUG fidelity -12.
COc1ccc(C(=O)Nc2ccc3c(c2)C(=O)N(C)C[C@H](OC)[C@@H](C)CN[C@@H](C)CO3)cc1 was read as UUG fidelity -7.
O=C(NCCN1CCOCC1)[C@]1(Cc2ccccc2)N=C(c2ccc(OCCCO)cc2)O[C@@H]1c1ccccc1 was read as UUG fidelity -1.
`O=C(Nc1ccc(F)cc1)N[C@H]1CC[C@H](CCNS(=O)(=O)c2ccccc2F)O[C@H]1CO` gave UUG fidelity -6.
Screening COc1ccc(-c2csc(Nc3ccc(S(=O)(=O)Nc4cc(C)on4)cc3)n2)cc1 returned NALP1 yeast inh 11, MC4R barr agon -2, HDAC3 inh 4, ALR H2O2 inh 98* and MC4R antag cAMP 12.
Screening CC(C)c1cn(CC[C@@H]2CC[C@H](NC(=O)c3cccc(F)c3)[C@@H](CO)O2)nn1 returned UUG fidelity 0.
Oc1cc2c(cc1O)C1c3ccc(O)c(O)c3OCC1(O)C2 (stereo unspecified) was read as NALP1 yeast inh -14, MC4R barr agon -3, HDAC3 inh -2, ALR H2O2 inh 100*, MC4R antag cAMP -2 and UUG fidelity -12.
Screening Cc1noc(C)c1NC(=O)Nc1ccc2c(c1)C(=O)N([C@@H](C)CO)C[C@H](C)[C@@H](CN(C)C(=O)NC(C)C)O2 returned UUG fidelity -9.
Screening CCC(C)N(C(=O)COC(=O)CCc1c[nH]c2ccccc12)C1CCS(=O)(=O)C1 (stereo unspecified) returned NALP1 yeast inh 32, MC4R barr agon 0, HDAC3 inh -1, ALR H2O2 inh 20 and MC4R antag cAMP 3.
For CCC(C)N(C(=O)COC(=O)Cc1n[nH]c(=O)c2ccccc12)C1CCS(=O)(=O)C1 (stereo unspecified) the results were NALP1 yeast inh 26*, MC4R barr agon 1, HDAC3 inh -4, MC4R antag cAMP 0 and UUG fidelity -12.
`C[C@H]1CN([C@@H](C)CO)C(=O)Cc2cc(NC(=O)CCCCCC(=O)Nc3ccccc3N)ccc2O[C@H]1CN(C)CC1CCCCC1` gave UUG fidelity 7.
For COc1cccc(OC)c1C(=O)Oc1ccc2c(c1)O/C(=C\c1ccncc1)C2=O the results were NALP1 yeast inh 43, MC4R barr agon 8.6*, HDAC3 inh 2, ALR H2O2 inh -9, MC4R antag cAMP 6 and UUG fidelity 9.
Cc1ccc(-c2cnc3c(c2)C(=O)N([C@@H](C)CO)C[C@H](C)[C@H](CN(C)C(=O)c2ccc(F)cc2)O3)cc1 was read as UUG fidelity 20.
Cc1cc(C)c2nc(N3C(=O)C(O)=C(C(=O)c4ccco4)C3c3ccco3)sc2c1 (stereo unspecified) was read as NALP1 yeast inh -3, MC4R barr agon 3, HDAC3 inh 4, ALR H2O2 inh 98*, MC4R antag cAMP 20 and UUG fidelity -14.
For CCOc1ccc2nc(N3C(=O)C(O)=C(C(=O)c4ccco4)C3c3ccco3)sc2c1 (stereo unspecified) the results were MC4R barr agon -2, HDAC3 inh -1, ALR H2O2 inh 6 and MC4R antag cAMP 2.
`CSc1nnc(N2C(=O)C(O)=C(C(=O)c3ccco3)C2c2cccc(Cl)c2)s1` (stereo unspecified) gave NALP1 yeast inh 16, MC4R barr agon -1, HDAC3 inh -4, ALR H2O2 inh 87*, MC4R antag cAMP 1 and UUG fidelity 6.

A draw from above in order of length of the SMILES, low to high.
Screening COc1cccc(-c2nc(CS(=O)CC(=O)NCCCOC(C)C)c(C)o2)c1 (stereo unspecified) returned NALP1 yeast inh 30, MC4R barr agon 0, HDAC3 inh 3, ALR H2O2 inh 99*, MC4R antag cAMP 13 and UUG fidelity -12.
Screening COc1cccc(-c2nc(CS(=O)(=O)CC(=O)NCc3ccc4c(c3)OCO4)c(C)o2)c1 returned NALP1 yeast inh 20, MC4R barr agon -3, HDAC3 inh 3, ALR H2O2 inh 95*, MC4R antag cAMP 9 and UUG fidelity -17.
O=C(NCCN1CCOCC1)[C@]1(Cc2ccccc2)N=C(c2ccc(OCCCO)cc2)O[C@@H]1c1ccccc1 was read as UUG fidelity -1.

Additional entries follow.
CSc1nnc(N2C(=O)C(O)=C(C(=O)c3ccco3)C2c2ccc(F)cc2)s1 (stereo unspecified) was read as NALP1 yeast inh 14, MC4R barr agon -2, HDAC3 inh 3, ALR H2O2 inh 10, MC4R antag cAMP 13 and UUG fidelity -27.
`C[C@@H]1CN([C@H](C)CO)C(=O)c2cccc(NC(=O)Nc3ccc(C(F)(F)F)cc3)c2O[C@H]1CN(C)C(=O)Nc1ccccc1` gave UUG fidelity 4.
`Cc1nnc2n(c1=O)N=C(c1ccc(Cl)cc1)CS2` gave NALP1 yeast inh 23, MC4R barr agon -2, HDAC3 inh 59*, ALR H2O2 inh 99*, MC4R antag cAMP 3 and UUG fidelity -23.
CO[C@@H]1CN(C)C(=O)c2cc(NC(=O)c3ccccc3)ccc2OC[C@H](C)N(C(C)=O)C[C@@H]1C was read as UUG fidelity -5.
Fc1ccc(-c2n[nH]c(=S)n2CC2CCCO2)cc1 (stereo unspecified) was read as NALP1 yeast inh 2, MC4R barr agon 0, HDAC3 inh 2, ALR H2O2 inh -1, MC4R antag cAMP 10 and UUG fidelity -5.
For CC(C)Cn1c(-c2ccc(F)cc2)n[nH]c1=S the results were NALP1 yeast inh -15, MC4R barr agon -1, HDAC3 inh -7, ALR H2O2 inh 57 and MC4R antag cAMP 12.
CC(C)Cn1c(-c2ccncc2)n[nH]c1=S was read as NALP1 yeast inh -11, MC4R barr agon -1, HDAC3 inh 3, ALR H2O2 inh 87*, MC4R antag cAMP 6 and UUG fidelity -18.
`S=c1[nH]nc(-c2ccncc2)n1Cc1ccco1` gave NALP1 yeast inh -8, MC4R barr agon -3, HDAC3 inh -5, ALR H2O2 inh 96*, MC4R antag cAMP -1 and UUG fidelity -16.
